Experiments:
[1] = system: TNF-α; assay: TNF-α production from LPS-stimulated human monocytes (ELISA); format: cell-based
[2] = system: Male Wistar rats; assay: Rat carrageenan paw edema test; format: in vivo; conditions: oral

Row | SMILES | TNF-α Inhibition (%) ([1]; Conc. 10 μM) | TNF-α Inhibition (%) ([1]; Conc. 1 μM) | Rat Paw Edema model % Inhibition (10 mg/kg body weight) [2]
1 | [N-]=[N+]=Nc1nc(N=[N+]=[N-])c(-c2ccccc2)c(-c2ccccc2)n1 | 69.43% |  | 
2 | [N-]=[N+]=Nc1nc(N=[N+]=[N-])c(-c2ccc(Cl)cc2)c(-c2ccccc2)n1 |  | 26.34% | 39.4%

Source: patent US7317014B2, “Bio-active pyrimidine molecules” (Orchid Research Laboratories, Ltd., priority 2002, dated 2008)
